## Ab-14 light chain CDR variants: yeast mating affinities

Antigen: PDVDLGDISGINAS, a 14-residue peptide of the SARS-CoV-2 spike HR2 region.

Parent: Ab-14, a human scFv built as VH, three GGGGS repeats, VL. Only the CDRs of the light chain vary.
VH: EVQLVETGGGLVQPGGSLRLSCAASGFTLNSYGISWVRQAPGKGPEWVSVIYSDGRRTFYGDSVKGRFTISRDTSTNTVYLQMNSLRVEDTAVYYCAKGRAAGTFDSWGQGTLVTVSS
VL: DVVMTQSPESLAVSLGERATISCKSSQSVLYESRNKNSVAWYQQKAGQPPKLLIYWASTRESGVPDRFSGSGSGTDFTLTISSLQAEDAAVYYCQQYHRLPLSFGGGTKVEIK

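The variants were designed computationally from a first round of random CDR variants and then made and measured. Group labels follow the data file (Ctrl: baseline library sampled from a position-specific scoring matrix, with some repeated check sequences; GP: Gaussian process model; GPLM: also part of the Gaussian process libraries; HC: hill climbing; Gen: genetic algorithm; Gibbs: Gibbs sampling; a sequence that several methods proposed may carry one label only). AlphaSeq pools MATa yeast showing the antibodies with MATalpha yeast showing the peptide. After mating in shaken culture at 30 °C for 16 h, diploids were selected and their barcode pairs sequenced. Read counts were normalised to the haploid input and turned into Kd by a linear fit to BCL2-family pairs of known affinity, for each replicate. There are six technical replicates.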

Changes read parent residue, position, new residue, counted from the first residue of the VL shown.
Variants here have at most six changes.
Numbers give log10(Kd / nM), so 0 is 1 nM and 3 is 1 µM. Smaller is tighter.
A mean of the replicates is given; it leaves out those without a signal.
An entry "nd" has no value in the source: the pair was not observed among the diploids in that replicate. This suggests poor binding but is not conclusive.
Background: pairings of all light chain designs with three empty control strains gave a value in 4% of cases (median 2.64, 5th percentile 1.59). Values in that range, when seen in few replicates, are hard to tell from nonspecific mating.
The authors averaged sequences with at least three values out of six and counted those with two or fewer as poor binders.
A sequence measured in both rounds can read differently, since the two assays cover different ranges.
Of ten entries with the parent sequence, four were seen in most replicates (averages 0.34 to 2.37), three in one and three in none, so single entries are noisy.

changes,group,"replicates, log10 nM","log10 Kd (nM), mean"
S25L S26Q N35Q W56N E61M,GP_Gen,0.31 0.24 0.15 0.41 -0.02 0.47,0.26
S25F S26E W56G,GP_Gen,-0.01 0.09 -0.18 -0.43 -0.33 -0.27,-0.19
S25Y S38A W56G,GP_HC,-0.01 -0.03 -0.17 -0.24 -0.15 0.03,-0.10
S25V Y31M W56N,GP_Gen,-0.03 0.18 0.54 0.19 0.70 0.40,0.33
S25V W56E S103W,GP_Gen,0.28 -0.20 -0.24 -0.01 -0.04 -0.02,-0.04
S25F S28H E61P,Ctrl,1.55 1.24 1.68 1.20 1.78 1.63,1.51
S25L L30E S33A N35D W56M E61M,GP_Gibbs,0.63 0.39 0.27 0.19 0.17 0.50,0.36
S25L R34Q S58K H98V,Ctrl,1.85 2.04 2.00 2.28 2.65 2.45,2.21
N35A S58T H98I L102I,Ctrl,nd nd nd nd nd nd,nd
S25V Q27L V29Y Y31L W56E,GP_HC,-0.24 -0.60 -0.20 -0.43 -0.24 -0.09,-0.30
Q27I V29Y Y31E W56S,GP_HC,0.39 0.29 0.34 0.17 0.04 0.40,0.27
S25M V29W K36S W56E E61L Q96D,GP_Gibbs,0.47 0.49 0.37 0.15 0.13 0.49,0.35
R34N W56Y,Ctrl,2.35 1.92 0.91 0.94 0.42 1.27,1.30
V29I R34L,Ctrl,nd nd nd nd nd nd,nd
S25L Q27G W56H,GP_Gen,-0.33 0.05 -0.13 -0.50 -0.36 -0.19,-0.24
S25L V29H E32D W56N,GP_HC,-0.17 -0.13 -0.35 -0.24 -0.31 -0.08,-0.21
S25L S26Q V29T W56N E61L,GP_Gen,0.04 -0.05 -0.21 -0.29 -0.26 -0.11,-0.15
S25D R34L W56S S103G,Ctrl,2.24 1.21 2.28 0.55 1.66 1.04,1.50
K24H Q27P L30E W56N,GP_HC,0.16 -0.45 -0.33 -0.56 -0.50 0.37,-0.22
Q27I V29Y R34E W56D T59Q,GP_HC,-0.28 -0.03 -0.48 -0.16 -0.58 0.02,-0.25
V29G S33E E61F,Ctrl,nd 2.45 1.43 2.35 1.51 1.54,1.86
S25L S28L V29G W56N,GP_Gen,-0.32 -0.19 -0.47 -0.52 -0.48 -0.28,-0.38
S25M V29W Y31Q R34N T59V Q95T,Ctrl,0.64 1.06 0.67 0.70 1.30 0.83,0.86
S25V R34G W56N E61M,GP_HC,-0.12 0.05 0.22 -0.24 -0.48 0.07,-0.08
S25V S33Q W56E T59Q,GP_Gen,0.33 -0.28 -0.16 -0.27 -0.10 -0.06,-0.09
K24M V29M Y97R,Ctrl,nd nd 1.56 nd nd 2.22,1.89
Q27Y V29G W56E,GPLM_HC,-0.25 -0.21 -0.33 -0.40 -0.34 -0.19,-0.29
S25L V29F S33E W56N,GP_Gen,-0.38 -0.64 -0.61 -0.68 -0.48 -0.38,-0.53
S25L S26P V29Q S38A W56Q,GP_Gen,0.61 0.36 0.53 0.34 0.73 0.48,0.51
R34S W56R Q96S L102C,Ctrl,nd nd nd 3.39 nd nd,3.39
S25L S26Q V29M L30E W56N E61L,GP_Gen,0.22 0.24 0.25 0.21 -0.07 0.19,0.17
S25L V29W W56H Q96D,GP_Gen,0.23 0.17 0.09 0.11 0.07 0.22,0.15
S26G Q27Y S28G W56G,GP_HC,0.18 -0.09 0.08 -0.09 0.14 0.09,0.05
S25I V29I R34V W56H,GP_HC,0.62 0.42 0.05 0.28 0.28 0.43,0.35
E32F,Ctrl,nd nd nd nd nd nd,nd

Again, the first 3 entries without any signal:

changes,group,"replicates, log10 nM","log10 Kd (nM), mean"
N35A S58T H98I L102I,Ctrl,nd nd nd nd nd nd,nd
V29I R34L,Ctrl,nd nd nd nd nd nd,nd
E32F,Ctrl,nd nd nd nd nd nd,nd

The measurements come from Li et al. 2023 (doi:10.1038/s41467-023-39022-2) through the FLAb antibody collection.